Values quoted from earlier work in US10906890B2, “Triazole phenyl compounds as agonists of the APJ receptor” (AMGEN INC., priority 2016, dated 2021).

Conditions: in vivo; cited from earlier work

Substance: Apelin-13
- plasma half-life: < 5 min
